This is an account of results in US20070071725A1, “Nitric oxide synthase gene transfer” (priority 2002, published 2007).

The assay concerns isolated right atrium. Briefly: [3H]norepinephrine release on field stimulation of the isolated right atrium. The settings on record: superfusion 20 μM, naive hearts, n=6. Set-up: species or system SD rat.

Some compounds may have been tested in ways that are not shown here.

For the substance sodium nitroprusside, the NE release is recorded as 1.281±0.105 % of total and the “decrease of NE release” value is 21.4%.
